Measurements from ChEMBL document CHEMBL1127594, “Inhibitors of acyl-CoA:cholesterol O-acyltransferase. 11. Structure-activity relationships of several series of compounds derived from N-(chlorocarbonyl) isocyanate” (J Med Chem, 1994).

Amino acid sequences for entries named in this document (tags omitted). Residues count along the entry.
UniProt G1SFD9, 1-524: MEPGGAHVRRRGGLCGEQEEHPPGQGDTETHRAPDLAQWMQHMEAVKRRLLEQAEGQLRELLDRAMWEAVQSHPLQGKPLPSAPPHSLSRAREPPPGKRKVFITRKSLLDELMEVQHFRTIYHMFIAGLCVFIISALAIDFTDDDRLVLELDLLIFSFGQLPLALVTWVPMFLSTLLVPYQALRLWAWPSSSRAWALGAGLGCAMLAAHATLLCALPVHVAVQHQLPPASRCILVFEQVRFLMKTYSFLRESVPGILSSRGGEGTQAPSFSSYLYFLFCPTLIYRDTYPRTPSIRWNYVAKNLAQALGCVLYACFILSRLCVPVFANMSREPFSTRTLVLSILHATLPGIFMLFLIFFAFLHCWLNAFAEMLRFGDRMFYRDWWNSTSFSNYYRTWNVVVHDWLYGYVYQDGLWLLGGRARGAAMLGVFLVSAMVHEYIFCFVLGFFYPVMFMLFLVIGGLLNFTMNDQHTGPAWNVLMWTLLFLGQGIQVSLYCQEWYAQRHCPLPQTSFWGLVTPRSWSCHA

Target: O-acyltransferase (Oryctolagus cuniculus, UniProt G1SFD9)
Assay: In vitro Acyl coenzyme A:cholesterol acyltransferase inhibitory activity (IAI) was determined by measuring the incorporation of [1-14C]oleolyl-CoA into cholesterol esters by intestinal microsomes isolated from cholesterol-fed rabbits
Set-up: species or system Intestine

- IC50: 0.35 µM
SMILES: CCCCCCCCCCC(C)OC(=O)NC(=O)Nc1c(C(C)C)cccc1C(C)C (stereo unspecified)
